The source of these data is patent US5512269A, “Method of treating retained pulmonary secretions” (priority 1993, dated 1996).

The subject of data set [1] is canine trachea airway surface liquid. The following applies: nebulized 50 μM, 0.7 ml delivered over 6 minutes; based on previous work. As for the experimental part: 1. The Animal Model: The model developed employed 30 kg male dogs that were anesthetized with intravenous pentobarbital and maintained on a intravenous infusion of normal saline at 75 cc/hour. The dogs were intubated. Ventilatory support was provided by a Harvard™ piston pump. Adequate ventilation and oxygenation were documented by arterial blood gas studies. Peak airway pressures (PAP) were measured and continuous monitoring of hemoglobin saturation was accomplished by pulse oximetry.
Drug and vehicle were delivered through the endotracheal tube. The drug was nebulized employing a Pulmo-Aid™ Compressor and a DeVilbiss™ nebulizer. The drug (50 μM; 3 ml) in a saline vehicle or the saline vehicle alone (control) was nebulized for 6 minutes during which 0.7 ml thereof was delivered to the animal. […] After 6 minutes, a clean and dry nebulizer was exchanged for the test nebulizer containing the drug or vehicle. The investigators were blinded as to whether drug or vehicle was given.
2. Measurements of airway fluid: Airway liquid measurements were made by applying dry preweighed filter paper to the cartilaginous portions of the airway for 20 seconds. […] In order to account for evaporative losses from the filter papers when exposed to room air, the time required to place the papers on the scales and perform the initial weighing was recorded. […] A regression line was calculated. […]

Regarding duramycin, the “concentration of duramycin achieved in the airway” value in data set [1] is given as “about 3×10^-7 M”. The “dose at which resistance across the tissue began to fall (indication of toxicity)” value with normal airway epithelium (dose response study) was “about 2×10^-6 M”. Further, in the data set with normal airway epithelium (duramycin-treated normal tissues), the “tissue damage: ability to respond to ATP and forskolin after duramycin treatment” value is given as “not significantly damaged”.
